Drawing on ChEMBL document CHEMBL3638796, “Nitrogen-containing heterocyclic compound and use thereof” (2013), this text covers IC50 for one compound.

Amino acid sequences for entries named in this document (tags omitted).
UniProt P25103, whole entry: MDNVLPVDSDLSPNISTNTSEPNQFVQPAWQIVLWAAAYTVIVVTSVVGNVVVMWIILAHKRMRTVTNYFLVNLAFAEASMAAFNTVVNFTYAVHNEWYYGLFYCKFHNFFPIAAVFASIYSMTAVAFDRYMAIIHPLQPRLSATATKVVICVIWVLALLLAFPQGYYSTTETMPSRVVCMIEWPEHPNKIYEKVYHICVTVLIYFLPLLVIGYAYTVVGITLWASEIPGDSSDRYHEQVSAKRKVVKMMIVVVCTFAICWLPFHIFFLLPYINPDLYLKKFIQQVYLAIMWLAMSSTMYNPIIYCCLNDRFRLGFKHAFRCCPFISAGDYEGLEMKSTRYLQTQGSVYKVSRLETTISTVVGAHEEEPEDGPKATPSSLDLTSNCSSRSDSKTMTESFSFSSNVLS

The assay deals with Substance-P receptor (Homo sapiens, UniProt P25103). The assay can be described thus: Human NK1 Receptor Binding Assay: IM-9 cells (2×10^5 cells/mL) were cultured for 3 days after inoculation, and centrifuged at 500×g for 10 min to give cell pellets. The obtained pellets were washed with PBS (Phosphate-Buffered saline) (GIBCO), disrupted in buffer A (50 mM Tris-hydrochloric acid buffer (Tris-HCl) (pH 7.4) containing 120 mM sodium chloride, 5 mM potassium chloride, 2 μg/mL …. It is filed as cell-based.

The IC50 is the concentration at which inhibition is half-maximal. Low readings indicate greater potency, high ones weaker potency. `CC(=O)C1CCC(C(=O)N2CC(c3ccc(Cl)c(Cl)c3)[C@H](N(C)C(=O)c3cc(C(F)(F)F)cc(C(F)(F)F)c3)C2)CC1` (stereo partly specified) displayed a 50% inhibitory concentration (IC50) of 1.5 nM.
